# Only a part is listed here, and it is no random draw. Activity calls are given as the source filed them.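 Rule for the calls: active = activation above the screen-wide mean activation plus 3 SD (cut at about 8% in these data); inactive = the rest.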
# Assay: activators of NFAT-driven beta-lactamase reporter, confirmation, counter-screen for GALR2 agonist project, CHO NFAT-bla cells, FRET readout (AID 865);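 note: 0% = DMSO with PBS wells and 100% = thapsigargin positive control wells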
# Settings: at 5.6 µM, stronger effect = higher value
smiles,measurement,value
CCC(C)N(CC(C)C)C(=S)SC(NC(C)=O)C(Cl)(Cl)Cl (stereo unspecified),activation,inactive: -2.09%

# Reference: PubChem BioAssay AID865 (The Scripps Research Institute Molecular Screening Center, 2007)
